# In patent publication US12135333B2, “Detection kit for detecting immunosuppressors in whole blood by high performance liquid chromatography-tandem mass spectrometry and detection method thereof” (Hangzhou Calibra Diagnostics Co., Ltd., priority 2021, dated 2024):
# Experiment: 14 d stability at 37° C. of isotope internal standards in the internal standard solution with different antioxidants (LC-MS/MS peak area)
# Assay type: physicochemical
# Protocol: A mixed internal standard working solution was prepared, and concentrations of cyclosporine A-d4, tacrolimus-13C-d4, and sirolimus-d3 were respectively 1 μg/mL, 50 ng/mL and 50 ng/mL; and an additive 1.0 mg/mL vitamin E was added, acetonitrile served as a solvent, and mixed into an internal standard solution.
# Supernatant was taken and detected by high performance liquid chromatography-tandem mass spectrometry; and a spectrogram of the standard curve at the lowest point was shown in FIG. 1. Specific analysis conditions were as follows: gradient elution was used to an instrumental method; and the tandem mass spectrum: electrospray ionization (ESI) ion source and positive ion Multiple Reaction Monitoring (MRM) Mode were taken.
# Antioxidants included 2,6-di-tert-butyl-p-cresol, vitamin E, vitamin C, β-carotene, and sodium metabisulfite.
substance,measurement,setting,value
cyclosporine A-d4 [CyclosporineA-d4],Peak area of internal standard solution,"14 d at 37° C., antioxidant 2,6-di-tert-butyl-p-cresol",136211
same,Peak area of internal standard solution,"14 d at 37° C., antioxidant P-carotene",147555
same,Peak area of internal standard solution,"14 d at 37° C., antioxidant Sodium metabisulfite",139515
same,Peak area of internal standard solution,"14 d at 37° C., antioxidant Vitamin C",147298
same,Peak area of internal standard solution,"14 d at 37° C., antioxidant Vitamin E",143337
same,Peak area of internal standard solution,"14 d at 37° C., free of adding antioxidant",129898
same,Peak area of internal standard solution,Initial values,140935
